# Measurements: PubChem BioAssay AID1049 (The Scripps Research Institute Molecular Screening Center, 2008)
# Only a part is listed here, and it is no random draw. Calls of active or inactive are those of the source. No stated cut-off is given here; in the data, active means TR-FRET ratio above about 2000; inactive means the rest.
# Test: TR-FRET signal artefacts, primary screen, artefact control for PPARgamma SRC-2 agonist project, biochemical (AID 1049)
# Conditions: TR-FRET artefact counter-screen; at 8 µM; stronger effect = higher value
row,SMILES,TR-FRET ratio
1,CN(C)c1ccc2nc3ccc(=[N+](C)C)cc-3sc2c1,active: 7110
